Data on one substance can be found in EP4678648A1, “SYNTHESIS METHOD OF ANTIBODY-DRUG CONJUGATES USING PROXIMITY EFFECT-BASED SITE-SELECTIVE ANTIBODY LABELING” (Sogang University Research Business Development Foundation, priority 2023, dated 2024).

One assay concerns MDA-MB-231. In words: Anti-proliferation assay (CellTiter-Glo, 72 hours). The following applies: MDA-MB-231 (HER2-negative), read-out: GI50s. The assay is classed as cell-based. The procedure: (§1) MDA-MB-231, MDA-MB-453, and SK-BR-3 were purchased from KCLB (Seoul, Korea). Cells were cultured in RPMI 1640 supplemented with 10% (v/v) fetal bovine serum (FBS) and 1% (v/v) penicillin/streptomycin (Welgene, Korea) and incubated at 37°C in a humidified 5% CO2 incubator.
(§2) Cells were seeded in 96-well plates at a density of 3,000 cells per well. After cell attachment, cells were treated with ADC serially diluted four-fold in PBS. After incubation at 37°C for 72 hours, cell viability was measured using CellTiter-Glo (G7572, Promega, Madison, WI, USA). Fitter dose-response curves and GI50 values were obtained using GraphPad Prism 6.0 software, and all experiments were conducted in duplicate.
(§3) To evaluate the cytotoxicity of the synthesized ADC, cell viability assays were conducted using breast cancer cell lines. Three cell lines were used, including two HER2-positive cell lines (SK-BR-3: high; MDA-MB-453: low) and one HER2-negative cell line (MDA-MB-231). The cells were treated with trastuzumab-(VC-PABC-MMAE)2, and trastuzumab WT and Kadcyla were also tested for comparison.
(ATP-based viability assays read luminescence as a measure of living cells.)

A further assay deals with MDA-MB-453. In words: Anti-proliferation assay (CellTiter-Glo, 72 hours). The assay is classed as cell-based. The conditions noted are these: MDA-MB-453 (HER2 low), read-out: GI50s. The procedure:
as §1, §2, §3

Turning to “Kadcyla: tested for comparison with the synthesized ADC”, the IC50 in the assay with MDA-MB-231 and in the assay on MDA-MB-453 was above 0.01 µM in each case.
